The numbers were not newly measured in patent US7897758B2, “Activators for oligonucleotide and phosphoramidite synthesis” (dated 2011), which cites them from elsewhere.

Some compounds may have been tested in ways that are not shown here.

The conditions of this series: background statement.

For the substance 1H-tetrazole, the “classification as explosive in Germany” value is listed as “Category A explosive”.
